{
  "source": "patent US12303619B2",
  "about": "“Polymer implants” (Foundry Therapeutics, Inc., priority 2018, dated 2025)",
  "origin": "cited, not measured here",
  "settings": "PVP electrospun nanofiber with 2.5 wt % Tween 20",
  "data": [
    {"substance": "maraviroc", "values": [
      {"measurement": "time to complete release of 28 wt % maraviroc", "value": "six"}
    ]}
  ]
}
